According to paper PMC3197488, “Characterization of the χψ subcomplex of Pseudomonas aeruginosa DNA polymerase III” (BMC Molecular Biology, 2011):

B1: E. coli χψ complex (complex)
chain 1: MKNATFYLLDNDTTVDGLSAVEQLVCEIAAERWRSGKRVLIACEDEKQAYRLDEALWARPAESFVPHNLAGEGPRGGAPVEIAWPQKRSSSRRDILISLRTSFADFATAFTEVVDFVPYEDSLKQLARERYKAYRVAGFNLNTATWK
chain 2: MTSRRDWQLQQLGITQWSLRRPGALQGEIAIAIPAHVRLVMVANDLPALTDPLVSDVLRALTVSPDQVLQLTPEKIAMLPQGSHCNSWRLGTDEPLSLEGAQVASPALTDLRANPTARAALWQQICTYEHDFFPRND
notes: DNA polymerase III χ subunit (holC), E. coli strain LK111λ; as m4; DNA polymerase III ψ subunit (holD), E. coli strain LK111λ; as m5; Heterodimer, calculated molar mass 31.8 kg/mol; also called Ecoχψ; Ecoχψ heterodimer; source: E. coli, expressed untagged from pET-15b, purified (ammonium sulfate, Q-sepharose, SEC); copies: 1 + 1
B3: E. coli single-stranded DNA-binding protein, wild type (natural protein, UniProt P0AGE0 1-178, looked up)
chain: MASRGVNKVILVGNLGQDPEVRYMPNGGAVANITLATSESWRDKATGEMKEQTEWHRVVLFGKLAEVASEYLRKGSQVYIEGQLRTRKWTDQSGQDRYTTEVVVNVGGTMQMLGGRQGGGAPAGGNIGGGQPQGGWGQPQQPQGGNQFSGGAQSRPQQSAPAAPSNEPPMDFDDDIPF
notes: also called EcoSSB; wild-type EcoSSB

Assays:
Settings in all cases: both partners purified
[1] = biological target: B3; test: AUC; sedimentation velocity; χψ titrated to 0.35 μM cognate SSB saturated with 12.3 μM poly(dT), low salt buffer, 22000 rpm, 20°C, 230 nm; model of n χψ per SSB tetramer
[2] = biological target: B3; test: AUC; sedimentation velocity; χψ titrated to 6 μM SSB in high salt buffer, 50000 rpm, 20°C, 280 nm; free χψ from c(s); model of n independent χψ per SSB tetramer
[3] = biological target: T1, E. coli DNA polymerase III χ subunit (E. coli, UniProt P28905 1-147); test: AUC; sedimentation equilibrium, high salt buffer (0.3 M NaCl, 20 mM KPi pH 7.4, 0.5 mM DTT), 4°C, 9000, 13000 and 18000 rpm; Paeχψ at 5.8 and 23.3 μM; global fit with a single molar mass
T1 construct: DNA polymerase III χ subunit, holC gene amplified from genomic DNA of E. coli strain LK111λ; Two vectors were used for the same protein: pET-15b (NcoI/XhoI, with Ecoψ) and pCDFDuet-1 (NdeI/XhoI, for the chimeric χEcoψPae complex); Primers in Additional file 9; also called Ecoχ; χEco; source: E. coli, co-expressed untagged with Ecoψ (pET-15b) and purified as Ecoχψ (ammonium sulfate, Q-sepharose, …)
T1 sequence (looked up): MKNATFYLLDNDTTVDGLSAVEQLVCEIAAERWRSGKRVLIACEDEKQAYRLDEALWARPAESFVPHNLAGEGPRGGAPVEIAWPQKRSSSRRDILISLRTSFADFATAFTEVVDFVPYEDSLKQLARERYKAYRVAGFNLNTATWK

E. coli χψ complex [4] = biological target: B1; test: AUC; sedimentation velocity; χψ titrated to 0.35 μM cognate SSB saturated with 12.3 μM poly(dT), low salt buffer, 22000 rpm, 20°C, 230 nm; model of n χψ per SSB tetramer
E. coli χψ complex [5] = biological target: B1; test: AUC; sedimentation velocity; χψ titrated to 6 μM SSB in high salt buffer, 50000 rpm, 20°C, 280 nm; free χψ from c(s); model of n independent χψ per SSB tetramer

Binder: B1
- stoichiometry N [1]: 3 χψ per SSB tetramer
- stoichiometry N [2]: 3.8 χψ per SSB tetramer

B2: E. coli DNA polymerase III ψ subunit (natural protein, UniProt P28632 1-137, looked up)
chain: MTSRRDWQLQQLGITQWSLRRPGALQGEIAIAIPAHVRLVMVANDLPALTDPLVSDVLRALTVSPDQVLQLTPEKIAMLPQGSHCNSWRLGTDEPLSLEGAQVASPALTDLRANPTARAALWQQICTYEHDFFPRND
notes: DNA polymerase III ψ subunit, holD gene amplified from genomic DNA of E. coli strain LK111λ; Primers in Additional file 9; also called Ecoψ; ψEco; source: E. coli, co-expressed untagged with Ecoχ (pET-15b), purified as Ecoχψ (ammonium sulfate, Q-sepharose, SEC)
- binding result [3]: binds

Binder: B3
- Ka (E. coli χψ complex [4]): 6e+06 M⁻¹
- Ka (E. coli χψ complex [5]): 180000 M⁻¹
